Laboratory results as given in US10201563B2, “Method of treating sinusitis, including chronic sinusitis” (SINOX PHARMA, INC., priority 2010, dated 2019).

Experiment: Gargle and nasal spray with ClO2 solution in people with sore throat, cold or sinusitis

chlorine dioxide
familiar sinusitis symptoms (headache, itchy nose, stuffed passages) (allergic or non allergic chronic sinusitis): gone or greatly reduced in a matter of minutes | major symptoms of chronic sinusitis (clogged nasal passages and apparent infection, in most instances without antibiotics, antifungal agents and/or surgery): promptly relieved
